Values quoted from earlier work as cited in PMC6398608 (Nature medicine, 2018).

Protein sequences, listed by entry. Tags and fused reporters are not part of them. Residues count along the entry.
UniProt P01589, 22-240, chain 1 of 3: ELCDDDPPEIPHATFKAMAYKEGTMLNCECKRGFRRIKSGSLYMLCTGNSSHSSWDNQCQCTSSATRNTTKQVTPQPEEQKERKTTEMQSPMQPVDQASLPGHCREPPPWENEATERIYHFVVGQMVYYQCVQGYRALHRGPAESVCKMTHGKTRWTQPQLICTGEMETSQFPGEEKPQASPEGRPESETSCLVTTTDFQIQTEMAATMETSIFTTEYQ
UniProt P60568, 21-153: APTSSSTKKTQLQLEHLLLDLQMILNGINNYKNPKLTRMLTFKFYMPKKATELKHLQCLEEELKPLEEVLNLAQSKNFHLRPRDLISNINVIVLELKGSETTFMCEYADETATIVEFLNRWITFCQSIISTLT

Target: IL-2 receptor alpha/beta/gamma (Homo sapiens) (UniProt P01589)
Conditions: cited from earlier work

Substance: IL-2 (from UniProt P60568)
- Kd: 0.01 nM
